Values quoted from earlier work as cited in patent US20150126551A1, “USE OF A […] HALIDE DERIVATIVE IN THE TREATMENT OF NEURODEGENERATIVE DISEASES” (Orphazyme ApS, priority 2003, published 2015).

Test system: patients suffering from ALS
Details: Miller et al. 2002, Cochrane review; cited from earlier work

In the case of `Nc1nc2ccc(OC(F)(F)F)cc2s1` [Riluzole], the extension of survival is listed as “approximately 3 months”.
